Laboratory results: PubChem BioAssay AID620 (Sanford-Burnham Center for Chemical Genomics, 2007)
Only a part is listed here, and it is no random draw. Activity calls are given as the source filed them. Cut-off read from the data, not from the text of the source: active = cytotoxicity above about 50%; inactive = the rest.

Test: HT1080 cell viability loss – fluorescence readout (AID 620);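 note: cells exposed to compound overnight then 4 h with Alamar Blue; 0% = vehicle DMSO and 100% = killing control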
Details: at 10 µM, active compounds read high

**Q.** With `Cc1cccc(OCC(=O)OC2CN3CCC2CC3)c1` (configuration not stated) as the molecule, how does the cytotoxicity read?
**A.** inactive: 5.5%

**Q.** Which cytotoxicity does the source give for `CCOP1(=S)c2c(C)nn(CCC#N)c2N=C(c2ccccc2F)N1C` (configuration not stated) here?
**A.** inactive: 3.9%

**Q.** For `O=P(Nc1nccs1)(c1ccccc1)c1nc2ccccc2s1` (configuration not stated), which cytotoxicity is on record?
**A.** inactive: -1.1%

**Q.** With `CCOP1(=S)c2c(C)nn(CCC#N)c2N=C(c2ccc(F)cc2)N1C` (configuration not stated) as the molecule, how does the cytotoxicity read?
**A.** inactive: 20.8%

**Q.** Which cytotoxicity does the source give for `Cc1nn(-c2ccccc2)c2c1P(=O)(N1CCOCC1)N(C)C(c1ccccc1)=N2` (configuration not stated) here?
**A.** inactive: 4.4%

**Q.** With `O=P1(Nc2ccc(Br)cn2)COc2ccccc2OC1` as the molecule, how does the cytotoxicity read?
**A.** inactive: 4.3%

**Q.** For `Cc1ccc(OCC(=O)OC2CN3CCC2CC3)cc1` (configuration not stated), which cytotoxicity is on record?
**A.** inactive: 0.4%

**Q.** Which cytotoxicity does the source give for `O=P1(Nc2ncccn2)COc2ccccc2OC1` here?
**A.** inactive: 29.6%

**Q.** Which cytotoxicity does the source give for `Clc1n[nH]nc1-c1nn[nH][15n]1` here?
**A.** inactive: 18.2%

**Q.** For `O=P1(Nc2ccccn2)COc2ccccc2OC1`, which cytotoxicity is on record?
**A.** inactive: -7.4%

**Q.** Which cytotoxicity does the source give for `CC1(CBr)Cn2c(nc3ccccc3c2=O)S1` (configuration not stated) here?
**A.** inactive: -9.3%

**Q.** Which cytotoxicity does the source give for `O=C(COc1ccccc1)OC1CN2CCC1CC2` (configuration not stated) here?
**A.** inactive: -2.1%

**Q.** With `COP1(=S)c2c(C)nn(CCC#N)c2N=C(c2ccc(F)cc2)N1C` (configuration not stated) as the molecule, how does the cytotoxicity read?
**A.** inactive: -2.1%

**Q.** Which cytotoxicity does the source give for `CCC(C)N(CC(C)C)C(=S)SC(NC(C)=O)C(Cl)(Cl)Cl` (configuration not stated) here?
**A.** inactive: 1.1%

**Q.** For `ClCCSc1nnc(-c2cccnc2)o1`, which cytotoxicity is on record?
**A.** inactive: 3.5%

**Q.** For `O=C(OC1CN2CCC1CC2)C12CC3CC(CC(C3)C1)C2` (configuration not stated), which cytotoxicity is on record?
**A.** inactive: 19.5%

**Q.** For `Oc1ccccc1CNc1ccccn1`, which cytotoxicity is on record?
**A.** inactive: -5.4%

**Q.** For `Cc1c2non([O-])c-2c(C)[n+](=O)[n+]1[O-]`, which cytotoxicity is on record?
**A.** inactive: 8%

**Q.** With `CCOP(=O)(Nc1ccccc1)OCC` as the molecule, how does the cytotoxicity read?
**A.** inactive: 27.1%

**Q.** With `CCc1nc2c(n1)c1c(non1O)c1c2no[n+]1[O-]` as the molecule, how does the cytotoxicity read?
**A.** active: 77.5%

**Q.** Which cytotoxicity does the source give for `O=[N+]([O-])c1cccc2n[nH]nc12` here?
**A.** inactive: -1.8%

**Q.** Which cytotoxicity does the source give for `CC1CCN(C(=O)Oc2c(Cl)cc(Cl)c3cccnc23)CC1` here?
**A.** inactive: -16.8%

**Q.** Which cytotoxicity does the source give for `c1nnnn1CCn1cnnn1` here?
**A.** inactive: 26.5%

**Q.** With `O=P(Nc1nccs1)(c1ccccc1)c1ccccc1` as the molecule, how does the cytotoxicity read?
**A.** inactive: 5.1%

**Q.** Which cytotoxicity does the source give for `O=C(OC1CN2CCC1CC2)c1cccc(Cl)c1` (configuration not stated) here?
**A.** inactive: -4%

**Q.** For `COC(=O)c1cc2c(s1)N=C(c1ccccc1)N(C)P2(=O)N1CCOCC1` (configuration not stated), which cytotoxicity is on record?
**A.** inactive: 2%

**Q.** Which cytotoxicity does the source give for `O=P1(Nc2nc3ccc(Cl)cc3s2)COc2ccccc2O1` (configuration not stated) here?
**A.** inactive: 7.7%
